The record followed here is patent publication US20090318346A1, “BIVALENT ErbB LIGAND BINDING MOLECULES AND METHODS FOR THEIR PREPARATION AND USE” (Targeted Molecular Diagnostics, priority 2006, published 2009).

Chains of the proteins cited; added tags and fusions are not shown. Residues count along the entry.
UniProt P01133, 971-1023 limits assumed, species assumed: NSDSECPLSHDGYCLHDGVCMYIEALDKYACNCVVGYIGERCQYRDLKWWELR

In one test the target is EGF (Homo sapiens, UniProt P01133). The test is described as follows: Cross-linking of hot EGF to traps (BS3). Format: binding. The settings on record: for interference of cold NDF with binding of EGF: excess unlabeled NDF. On the procedure:
FIG. 6: Cross-linking of hot EGF to traps. Bivalent and monovalent traps were incubated with hot EGF, and with/without excess unlabeled EGF or NDF, followed by cross-linking molecule BS3. Bands shown are either the bivalent or monovalent traps cross-linked to hot EGF. As expected, all bivalent traps bind EGF, while only the ErbB1 monovalent trap binds EGF. Addition of cold EGF competes away the binding of hot EGF in all traps as expected. […] Constructs were prepared as described in Example 1.

The test system of another test is BT474 cells. The test is described as follows: BT474 cells cultured in conditioned medium from 293T cells expressing trap constructs. As to conditions: conditioned medium diluted 1:1 with fresh medium, 48 hrs. Format: cell-based. On the procedure:
FIG. 5: To test the functionality of the traps, conditioned medium from the 293T cells was collected, filtered and diluted 1:1 with fresh medium. This diluted, conditioned medium was then used to culture BT474 cells. After 48 hrs, the cells were fixed and stained with a solution of 1% methylene blue in 50% methanol. BT474 cells were cultured in medium from the trap constructs as follow: 1. pEF-IRES-P (control), 2. pEF-ECD13-IRES-P, 3. pEF-ECD14-IRES-P, 4. pEF-ECD3-IRES-P (single trap), 5. pEF-ECD31-IRES-P and 6. pEF-ECD41-IRES-P abbreviations for constructs are defined above in FIG. 3.
To test the functionality of the binding molecules, conditioned medium from the 293T cells was collected, filtered and used to culture BT474 cells.

Turning to “ErbB1 monovalent trap: monovalent trap containing the ErbB1 ligand binding ectodomain portion”, the “binding of hot EGF (cross-linked band)” value with EGF (hot EGF, cross-linker BS3) is given as “binds EGF”.

Consider “ErbB1-ErbB3: double trap: ErbB1 ectodomain portion (to V500) amino terminal, (Gly4Ser)3 linker, ErbB3 ectodomain portion (to L499), TEV site, His tag”, for which the “interference of cold NDF with binding of EGF” value (“interference of cold NDF” below) with EGF is “seemed to interfere with the binding of EGF”.

Regarding “ErbB3-ErbB1: double trap: ErbB3 ectodomain portion amino terminal, (Gly4Ser)3 linker, ErbB1 ectodomain portion carboxy terminal, His tag”, the “interference of cold NDF” value with EGF was “not”.

In the case of “ErbB4-ErbB1: double trap: ErbB4 ectodomain portion amino terminal, (Gly4Ser)3 linker, ErbB1 ectodomain portion carboxy terminal, His tag”, the “interference of cold NDF” value with EGF was “not”.

As for “pEF-ECD14-IRES-P: double trap: ErbB1 ectodomain portion amino terminal, (Gly4Ser)3 linker, ErbB4 ectodomain portion (to L496) carboxy terminal, His tag”, in the test on BT474 cells, the cell number result is listed as “significant reduction in cell number”.
